US6960454B2, “Methods for making and using a thermophilic enzyme as a β-glycosidase” (Director-General of Agency of Industrial Science and …, priority 1998, dated 2005)

Substrate: O=[N+]([O-])c1ccc(O[C@@H]2O[C@H](CO)[C@@H](O)[C@H](O)[C@@H]2O)cc1
Assay: purified protein, by the assay type
Type: biochemical
Conditions: other: His-BGPh, 90° C. and pH 6.0

B1: his-tagged BGPh from P. horikoshii (His-BGPh) (Pyrococcus horikoshii OT3) (protein)
chain: MPLKFPEMFLFGTATSSHQIEGNNRWNDWWYYEQIGKLPYRSGKACNHWELYRDDIQLMTSLGYNAYRFSIEWSRLFPEENKFNEDAFMKYREIIDLLLTRGITPLVTLHHFTSPLWFMKKGGFLREENLKHWEKYIEKVAELLEKVKLVATFNEPMVYVMMGYLTAYWPPFIRSPFKAFKVAANLLKAHAIAYELLHGKFKVGIVKNIPIILPASDKERDRKAAEKADNLFNWHFLDAIWSGKYRGVFKTYRIPQSDADFIGVNYYTASEVRHTWNPLKFFFEVKLADISERKTQMGWSVYPKGIYMALKKASRYGRPLYITENGIATLDDEWRVEFIIQHLQYVHKAIEDGLDVRGYFYWSFMDNYEWKEGFGPRFGLVEVDYQTFERRPRKSAYVYGEIARSKEIKDELLKRYGLPELQL
B1 showed a Km of 140 µM.
